Consider four compounds from ChEMBL document CHEMBL1129432, “Structure-activity relationships of a series of novel (piperazinylbutyl)thiazolidinone antipsychotic agents related to 3-[4-[4-(6-fluorobenzo[b]thien-3-yl)-1-piperazinyl]butyl]-2,5,5- trimethyl-4-thiazolidinone maleate” (J Med Chem, 1996).

Sequences of proteins named here, by UniProt entry; tags and fusion partners are left off.
UniProt P61169, whole entry: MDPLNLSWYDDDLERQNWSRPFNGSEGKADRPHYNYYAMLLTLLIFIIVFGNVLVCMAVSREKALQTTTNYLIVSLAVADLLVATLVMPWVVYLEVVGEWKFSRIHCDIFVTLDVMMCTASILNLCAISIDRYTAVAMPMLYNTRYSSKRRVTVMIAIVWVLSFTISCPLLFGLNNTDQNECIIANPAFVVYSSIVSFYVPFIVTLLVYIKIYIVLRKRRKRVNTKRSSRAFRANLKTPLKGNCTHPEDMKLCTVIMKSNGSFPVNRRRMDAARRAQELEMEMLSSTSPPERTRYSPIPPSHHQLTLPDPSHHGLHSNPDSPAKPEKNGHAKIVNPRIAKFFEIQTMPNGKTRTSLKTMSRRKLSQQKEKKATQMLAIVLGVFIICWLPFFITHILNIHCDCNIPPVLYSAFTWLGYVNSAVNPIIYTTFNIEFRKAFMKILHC
UniProt P19327, whole entry: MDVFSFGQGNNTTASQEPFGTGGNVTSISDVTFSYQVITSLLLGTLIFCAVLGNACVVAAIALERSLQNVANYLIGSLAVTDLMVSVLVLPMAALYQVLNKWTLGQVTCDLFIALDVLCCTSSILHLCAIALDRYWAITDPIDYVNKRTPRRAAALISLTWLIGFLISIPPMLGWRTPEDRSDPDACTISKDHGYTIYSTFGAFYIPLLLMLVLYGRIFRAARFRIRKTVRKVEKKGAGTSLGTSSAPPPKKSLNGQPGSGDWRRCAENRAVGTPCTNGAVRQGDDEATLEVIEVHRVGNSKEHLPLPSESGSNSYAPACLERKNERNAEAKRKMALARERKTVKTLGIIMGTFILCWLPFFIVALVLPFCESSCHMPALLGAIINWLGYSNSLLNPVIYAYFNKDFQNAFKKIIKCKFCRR

Experiment [1] concerns the target D(2) dopamine receptor (Rattus norvegicus, UniProt P61169). Briefly: Binding affinity towards Dopamine receptor D2 was determined in rat striatum using [3H]- spiperone as radioligand. Type of experiment: tissue-based.
Experiment [2] has as its target 5-hydroxytryptamine receptor 1A (Rattus norvegicus, UniProt P19327). As to the kind of experiment: Binding affinity towards serotonin 5-HT1A receptor was determined in rat hippocampus using [3H]8-OH-DPAT as ligand. Type of experiment: tissue-based.

In general, IC50 refers to the point on the concentration scale where inhibition reaches its midpoint. A low value points to greater potency. For `O=C1CSCN1CCCCN1CCN(c2ccc(F)cc2)CC1`, the IC50 in experiment [1] is 12900 nM.

As to `Cc1cccc(N2CCN(CCCCN3CSC(C)(C)C3=O)CC2)c1`, the IC50 in experiment [1] was 2640 nM.

For `CC1SC(C)(C)C(=O)N1CCCCN1CCN(c2nsc3cc(Cl)ccc23)CC1` (stereo not given), the values for the IC50 in experiment [1] and in experiment [2] were 286 nM and 324 nM, respectively.

With `COc1ccccc1N1CCN(CCCCN2CSC(C)C2=O)CC1` (stereo not given), the IC50 in experiment [1] was 786 nM.
